Common to all, as to assay type: functional, organism-based
The subject of experiment [1] is Cynomolgus monkey. Put plainly: Induction of pigmentation in cynomolgous monkey at 30 mg/kg, po for 3 weeks followed by treatment discontinuation measured after 16 weeks. Conditions: Macaca fascicularis.
Experiment [2] has as its system Cynomolgus monkey. Put plainly: Induction of pigmentation in cynomolgous monkey at 1 to 3 mg/kg, po for 4 weeks followed by treatment discontinuation measured after 2 weeks. The note with it: Macaca fascicularis, dose 1-3 mg/kg.
The subject of experiment [3] is Cynomolgus monkey. Nature of the experiment: Induction of pigmentation in cynomolgous monkey at 1 to 3 mg/kg, po measured for 4 weeks. Conditions: Macaca fascicularis, dose 1-3 mg/kg.
In experiment [4] the test system is Cynomolgus monkey. Put plainly: Induction of pigmentation in cynomolgous monkey at 10 mg/kg, po for 4 weeks followed by treatment discontinuation measured after 4 weeks. The note with it: Macaca fascicularis.
For experiment [5], the system named is Cynomolgus monkey. Put plainly: Induction of pigmentation in cynomolgous monkey at 10 mg/kg, po measured for 3 weeks. Conditions: Macaca fascicularis.
For experiment [6], the system named is Cynomolgus monkey. Put plainly: Induction of pigmentation in cynomolgous monkey at 30 mg/kg, po measured for 1 week. Conditions: Macaca fascicularis, time 1.0 weeks.

Activity calls are given as the source filed them. The rule behind the calls is not given here.

In the case of `COC[C@H]1CN(C(=O)[C@]2(F)CN(C3CCCC3)C[C@H]2c2ccc(OC)cc2)C[C@@H]1c1ccc(C(F)(F)F)cc1N1CCC(C(=O)O)CC1`, the result with Cynomolgus monkey [1], with Cynomolgus monkey [2] and in the experiment on Cynomolgus monkey [4] was inactive. Besides, the outcome in the experiment on Cynomolgus monkey [3], with Cynomolgus monkey [5] and with Cynomolgus monkey [6] was Active.

For the origin of these results see ChEMBL document CHEMBL6078683, “Discovery of MT-7117 (Dersimelagon Phosphoric Acid): A Novel, Potent, Selective, and Nonpeptidic Orally Available Melanocortin 1 Receptor Agonist” (J Med Chem, 2024).
